From patent publication US20070179113A1, “GM-CSF gene therapy for Crohn's disease using an improved regulated expression system” (Schering Aktiengesellachaft, priority 2005, published 2007)

Assays:
[1] = mice, rats and monkeys; cited from earlier work
[2] = Pharmacokinetic study of bolus hIFN-β1a protein, serum hIFN-β ELISA

Row | Substance | half-life (t1/2) [1] | amount of hIFN-β1a remaining in serum at 6 hours, i.m. vs i.v. ([2]; 6 hours) | decrease of serum level from maximum by 6 hours ([2]; i.m. injection) | time of maximum hIFN-β1a serum level post-injection ([2]; i.m. injection) [h] | difference in serum hIFN-β1a level between high and low dose ([2]; i.v. and i.m., 250 ng vs 25 ng) [fold] | time by which serum hIFN-β1a levels were near the limit of detection (LOD=12.5 pg/ml) ([2]; i.v. injection, 25 ng or 250 ng) [h]
1 | PEGylated form of IFN-β1a: IFN-β1a with an attached 20-kDa polymer of polyethylene glycol [reference compound] | 10 h | – | – | – | – | –
2 | hIFN-β1a: recombinant human interferon-β1a protein | approximately 1 hours | higher with the i.m. injection compared to the i.v. injection | approximately 10 fold | 2 | 10 | ≤ 6
